Literature values in patent publication US20240285642A1, “EGFR INHIBITOR FOR THE TREATMENT OF HEAD AND NECK CANCER” (NATCO PHARMA LIMITED, priority 2021, published 2024).

Test system: R/M HNSCC
Settings: combined with platinum-based chemotherapy; cited from earlier work

## cetuximab: approved monoclonal antibody, EGFR inhibitor
  ORR: 35.6%
